The list shows a part of the results, in another mix than the full data. Active and inactive are the calls of the source. The call rests on the fitted dose curve; in most records, active means well fitted curve in the direction sought with a large enough effect; inconclusive means small, poorly fitted or top-dose-only effect, or another doubt; inactive means no such curve, though single readings can be large or run the other way.

Sequences of proteins named here, by UniProt entry; tags and fusion partners are left off. A change or cut given only in a name is not applied to a line headed by its entry.
UniProt P18054: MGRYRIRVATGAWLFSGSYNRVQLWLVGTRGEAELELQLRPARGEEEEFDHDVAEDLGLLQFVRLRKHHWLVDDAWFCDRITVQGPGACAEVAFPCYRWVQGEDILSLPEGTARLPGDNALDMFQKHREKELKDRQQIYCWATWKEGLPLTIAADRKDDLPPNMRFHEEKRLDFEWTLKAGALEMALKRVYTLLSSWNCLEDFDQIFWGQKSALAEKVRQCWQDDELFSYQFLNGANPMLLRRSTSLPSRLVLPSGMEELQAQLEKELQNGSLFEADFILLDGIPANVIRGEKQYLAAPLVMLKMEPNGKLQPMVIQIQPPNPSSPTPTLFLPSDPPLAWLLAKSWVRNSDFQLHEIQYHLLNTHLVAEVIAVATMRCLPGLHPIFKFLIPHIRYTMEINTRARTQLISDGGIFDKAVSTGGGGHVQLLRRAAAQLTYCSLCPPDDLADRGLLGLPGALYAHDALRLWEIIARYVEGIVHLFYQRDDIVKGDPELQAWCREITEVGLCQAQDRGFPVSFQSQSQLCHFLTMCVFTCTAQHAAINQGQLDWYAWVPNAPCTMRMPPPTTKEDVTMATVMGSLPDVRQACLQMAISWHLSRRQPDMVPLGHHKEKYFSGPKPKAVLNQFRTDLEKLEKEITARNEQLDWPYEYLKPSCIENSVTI

The results in this text go back to PubChem BioAssay AID1671189 (National Center for Advancing Translational Sciences (NCATS), 2021).
Potency means the concentration at half of the fitted maximal effect.

For this assay, the target named is Polyunsaturated fatty acid lipoxygenase ALOX12 (Homo sapiens) (UniProt P18054). In words: Confirmatory qHTS assay for inhibitors of human arachidonate 12S-lipoxygenase (ALOX12): Round 2. The settings on record: purified human 12-LOX, xylenol orange absorbance. The source says:
Assay Provider: Theodore R. Holman Ph.D. University of California, Santa Cruz, California Human lipoxygenase 12hLO is a member of the closely related lipoxygenase family of enzymes which catalyze the site-specific oxidation of arachidonic acid to various hormone precursor molecules and as such is a candidate for drug development in a variety of disease areas, such as cancer and inflammation. Inhibition of 12hLO activity was screened by utilizing arachidonic acid as a substrate. The extent of hydroperoxide product formation was measured by a secondary chromogenic reaction in which xylenol orange (XO, Sigma-Aldrich, cat. number 39,818-7) reacts with the ferric ions produced from the reaction between the hydroperoxide and ferrous ions. The Fe (III)-XO complex is characterized with red-shifted absorbance at 560 nm. […]
PROTOCOL TABLE SEQUENCE No. (e.g., 1, 2, 3, etc.); […] […] 7; Incubation; 30 min; room temperature 8; Detector; absorbance; Read 1 at 405 nm absorbance using ViewLux (PerkinElmer) CCD imager. 9; Detector; absorbance; Read 2 at 573 nm absorbance using ViewLux (PerkinElmer) CCD imager. […] 8, 9; Two absorbance readouts were obtained at 405 nm and at 573 nm using a ViewLux high-throughput CCD plate imager (PerkinElmer). The 573 to 405 (Read 2 / Read 1) absorbance ratio was used to compute reaction progress.
For orientation: Quantitative high-throughput screening tests each substance at several concentrations.
For `COc1cccc(CNc2ccc(S(=O)(=O)Nc3nccs3)cc2)c1O`, the Potency is active: 19.3 µM.
